From ChEMBL document CHEMBL1149096 (J Med Chem, 2004)

The chains behind the UniProt entries cited, without tags or fusion partners.
UniProt P33533, whole entry, looked up: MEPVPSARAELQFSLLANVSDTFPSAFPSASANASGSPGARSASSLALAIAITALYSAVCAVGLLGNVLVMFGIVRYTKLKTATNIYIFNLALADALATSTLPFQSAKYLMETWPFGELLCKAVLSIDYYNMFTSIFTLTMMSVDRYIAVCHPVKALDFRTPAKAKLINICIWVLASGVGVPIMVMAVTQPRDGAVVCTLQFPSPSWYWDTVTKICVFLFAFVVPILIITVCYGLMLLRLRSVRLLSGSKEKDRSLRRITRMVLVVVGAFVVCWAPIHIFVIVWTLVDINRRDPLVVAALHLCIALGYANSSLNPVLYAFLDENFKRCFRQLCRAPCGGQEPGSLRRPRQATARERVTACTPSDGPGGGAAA
UniProt P33535, whole entry, looked up: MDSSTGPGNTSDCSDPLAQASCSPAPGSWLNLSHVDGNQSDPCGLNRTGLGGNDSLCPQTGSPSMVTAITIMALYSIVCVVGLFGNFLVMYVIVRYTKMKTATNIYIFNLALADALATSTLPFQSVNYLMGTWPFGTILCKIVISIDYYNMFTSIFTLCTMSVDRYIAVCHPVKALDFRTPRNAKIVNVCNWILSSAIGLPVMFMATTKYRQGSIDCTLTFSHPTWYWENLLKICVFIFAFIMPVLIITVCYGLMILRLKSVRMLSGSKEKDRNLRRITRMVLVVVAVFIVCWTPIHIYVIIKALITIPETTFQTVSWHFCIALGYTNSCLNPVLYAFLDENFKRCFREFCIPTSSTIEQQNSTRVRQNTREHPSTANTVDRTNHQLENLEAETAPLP

Tests used:
[1] = biological target: Opioid receptors; mu & delta (Rattus norvegicus) (UniProt P33533+P33535); test: Selectivity given as ratio of mu receptor to delta receptor; assay type: protein assay
[2] = species: Cavia porcellus; test: Selectivity given as ratio of kappa receptor to delta receptor

Which results are given for `CN(C(=O)Cc1ccccc1)[C@H]1CC[C@@]2(CCCO2)C[C@@H]1N1CCCC1`?
Ratio [1]: < 1.5; Ratio [2]: < 0.01
